## scFv variants of Ab-14 (light chain) against a SARS-CoV-2 spike peptide

From the AlphaSeq antibody data of Engelhart et al. 2022 (doi:10.1038/s41597-022-01779-4), copy in the FLAb collection.

All variants were tested on one target, the spike HR2 peptide PDVDLGDISGINAS (SARS-CoV-2).

Parent: Ab-14, a human scFv built as VH, the linker GGGGSGGGGSGGGGS, VL. Only the CDRs of the light chain vary.
VH: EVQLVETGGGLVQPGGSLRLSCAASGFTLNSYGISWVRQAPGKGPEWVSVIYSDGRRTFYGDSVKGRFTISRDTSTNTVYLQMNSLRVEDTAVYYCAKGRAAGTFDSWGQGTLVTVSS
VL: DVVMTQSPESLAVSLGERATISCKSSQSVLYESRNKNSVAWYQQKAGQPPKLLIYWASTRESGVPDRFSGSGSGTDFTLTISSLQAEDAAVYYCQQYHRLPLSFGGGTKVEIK

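The starting antibody came from a phage panning campaign against this peptide. The library (AAYL50) carries one to three amino acid substitutions per variant, with no insertions or deletions. AlphaSeq pools MATa yeast showing the antibodies with MATalpha yeast showing the peptide. Binding brings cells together so that they mate, and sequencing counts the barcode pairs among the diploids. A regression on co-assayed BCL2-family reference pairs converts the normalised counts of each replicate to an apparent Kd. Each pool was mated in three replicate cultures.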

Variants are written as CDR1, CDR2 and CDR3 of the light chain (limits as in the source). Parent: KSSQSVLYESRNKNSVA, WASTRES, QQYHRLPLS. Kd is apparent (estimated from mating counts) and averaged on the log scale over replicates with a signal. Smaller is tighter. "no signal" marks a missing value. The strain was present, yet no cells mated with the target were sequenced in any replicate, which points to weak or no binding. As a blank, each scFv also met three strains without target: over library AAYL50, 18% of these pairings were detected, typically at 15 µM and seldom below 970 nM. For each scFv, signals with the empty controls are counted beside the result.

CDR-L1 | CDR-L2 | CDR-L3 | Kd (apparent) | seen in | control signals
KSSQSVLYESRNKNSVA | WMSTRES | QQYHRLLLS | 510 nM | 3/3 | 0/9
KSSQSVLYESRVKNSVA | WAVTRES | QQWHRLPLS | 490 nM | 2/3 | 6/9
KSFQSTLYESRNKNSVA | DASTRES | QQYHRLPLS | 2.0 nM | 3/3 | 2/9
KSSQSVLYTSRNKNSVA | WASTREQ | QQYCRLPLS | no signal | 0/3 | 0/9
KSSQSVLYESRAKNSVA | WACTRES | QQYHRGPLS | no signal | 0/3 | 2/9
KSSQRVLYESRNKNSVA | WASTRGS | QQYHRLNLS | 5.6 µM | 1/3 | 0/9
KSSQSVRYESRNYHSVA | WASTRES | QQYHRLPLS | no signal | 0/3 | 0/9
KSSQSVLYESRNKNSVA | WASTREY | QQYHRTWLS | 2.1 nM | 3/3 | 0/9
KSSQSVLYESRNWNSVA | WSSTRES | QMYHRLPLS | 230 nM | 2/3 | 0/9
KSPYSVLYESRNKNSVA | WASLRES | QQYHRLPLS | 24 nM | 3/3 | 4/9
KSSQSVLYESRNKNSVA | WMSTRES | QQYHRDPVS | 74 µM | 2/3 | 2/9
KSSQGVLYESRNKNSVA | WASTRGS | QQYHRLPLS | 45 nM | 3/3 | 3/9
KSGQSVLYESRNKNSVA | CASTRES | QQYHRLPLS | 4.9 µM | 3/3 | 3/9
KSSQSVLYESRNKKSVP | MASTRES | QQYHRLPLS | 100 µM | 2/3 | 4/9
KSSQSVLYESRNKNSVA | WFSTRSS | QQYHRTPLS | 660 µM | 1/3 | 2/9
KSSQSVLYESRNKNSSA | WASRRES | KQYHRLPLS | 14 µM | 2/3 | 2/9
KSSQSVLYESRNKNSVA | GASTRES | QQYHGTPLS | 150 nM | 1/3 | 0/9
KSSQSVLYKSRNFNSVA | WASTREN | QQYHRLPLS | no signal | 0/3 | 0/9
TSSQSVLYESRNKNSMA | WASTRES | QQYHHLPLS | 1.5 µM | 3/3 | 5/9
KSSQSVLYESVNKNSVA | WVSTRES | QQKHRLPLS | 170 µM | 3/3 | 5/9
KSSQSVLYESRNKNEVA | WANTRES | QQYHRLPMS | no signal | 0/3 | 2/9
KSSQSVLYESRNKNSVA | WHSTRES | QQTHRLPLS | no signal | 0/3 | 1/9
KSSQSVLYESRVKNCVC | WASTRES | QQYHRLPLS | 360 nM | 1/3 | 3/9
KSSQSVLYESRSKNSVA | WASVRES | QQYRRLPLS | 29 nM | 3/3 | 1/9
KSTQSVLYESRNKNSVA | WQSTREP | QQYHRLPLS | 3.3 µM | 1/3 | 0/9
KSSQSVQYESRNFNSVA | WASTRES | QQYHRLLLS | no signal | 0/3 | 0/9
KSSQSVFYESRNKNSVA | WASTRES | QQYHRLPNS | 15 nM | 3/3 | 0/9
KSSQSVLAESRLKNSVA | WRSTRES | QQYHRLPLS | 1.9 µM | 3/3 | 3/9
KSSQSVPYESRNKNSVA | WASTRES | QQYHRCSLS | no signal | 0/3 | 1/9
KSSQSVLPEWRNKNQVA | WASTRES | QQYHRLPLS | 170 nM | 3/3 | 1/9
ASSQSVLSESRNKNSVA | WASTRES | QQYHRLTLS | 620 nM | 3/3 | 2/9
KSSQSVDYESRNKNYVA | WASTRES | QQYHRLMLS | 1.4 µM | 3/3 | 0/9
KSSQSVLYESRLKNSVA | WASTRES | NQYHRLPPS | 50 µM | 1/3 | 0/9
KSSQSKLYESRNKNSVA | WASQRRS | QQYHRLPLS | 35 nM | 3/3 | 0/9
KSSQSVLYESREKNSVA | WAFTRES | QQYHRLSLS | no signal | 0/3 | 0/9
KSSQSVLYESRNKNSDA | WASTRES | PQYHRLPSS | 4.4 µM | 1/3 | 2/9
KSSPSVLYEYRNKNSVP | WASTRES | QQYHRLPLS | no signal | 0/3 | 2/9
KRSQSVLYESCNKSSVA | WASTRES | QQYHRLPLS | 63 nM | 3/3 | 6/9
GSSQSVLYESRNKNSVA | WASTMES | QQHHRLPLS | 1.1 µM | 3/3 | 4/9
KPSQSVLYESRNKNYVA | WASTRES | QQYHRLPLS | no signal | 0/3 | 0/9

Second part, the sequence after the result:

Kd (apparent) | seen in | control signals | CDR-L1 | CDR-L2 | CDR-L3
no signal | 0/3 | 0/9 | KSSQSVLYESDNKNSVA | WASTRES | QQYHRLPAE
84 nM | 3/3 | 0/9 | KSSQSVLAESRNKNSVA | VASTRES | QQYHRAPLS
670 nM | 1/3 | 0/9 | KSSQSVLYEFRNKNWVA | WASTRES | QQYHRLPPS
170 µM | 1/3 | 0/9 | KSSQSVLYESRNKNMVA | WASTLES | QQYHRLQLS
57 µM | 2/3 | 3/9 | KSSASVLYESRNKNSVA | WACTRES | GQYHRLPLS
53 µM | 1/3 | 3/9 | KSQQSVTYESRNKKSVA | WASTRES | QQYHRLPLS
340 nM | 3/3 | 2/9 | KSSQSRLYESRGKNSVA | WASTRES | QQYHALPLS
no signal | 0/3 | 1/9 | KSSQSNLYESRNKNSVA | WASTWES | QQYHHLPLS
no signal | 0/3 | 1/9 | KSSRSVLYESRNKNSVA | WASTYES | QQYHRHPLS
30 nM | 1/3 | 1/9 | KSSQSVLYESENKNEVA | WASTRES | QQYHRLMLS
400 nM | 3/3 | 2/9 | QSSQSVLYETRNKNSVA | WASTRES | QQYERLPLS
5.1 nM | 3/3 | 0/9 | KSSYSPLYESRNKNSVA | WASTRES | QQYHRLPFS
1.9 µM | 3/3 | 1/9 | KSSFSVLYRSRNKNSVA | WASTREH | QQYHRLPLS
110 µM | 1/3 | 2/9 | KSSQSVLYESRNKNSVF | WASTQES | QQYHRLPLS
no signal | 0/3 | 4/9 | KSSQSVLYESRNMNSVF | WASTREL | QQYHRLPLS
11 nM | 3/3 | 0/9 | KSSVSVLYESRTKNSVA | WASTRES | QQYHRLPLS
15 µM | 2/3 | 4/9 | KSSQSVLYNSRNKSSVG | WASTRES | QQYHRLPLS
16 nM | 3/3 | 0/9 | KSAQSVLQASRNKNSVA | WASTRES | QQYHRLPLS
33 µM | 1/3 | 1/9 | KLSQSSLYESRNKNSVA | WASTRES | QQYHREPLS
no signal | 0/3 | 1/9 | KSSQSVLYEARNKNSVM | WASTRES | QQYHRLPHS
2.3 mM | 1/3 | 2/9 | KSSVSVLYESRNKNSGA | WASDRES | QQYHRLPLS
21 µM | 1/3 | 2/9 | KSSYSVLYESRNKNSVC | WASTRES | QQYHRLDLS
no signal | 0/3 | 1/9 | WSSQSVLYESRNKNSEA | WASTRES | QQYHRTPLS
no signal | 0/3 | 0/9 | KSSQSVLYESRNKNKQA | WASTRES | QQRHRLPLS
8.9 µM | 1/3 | 3/9 | KSSYSVLPESRNKNSVA | WASTFES | QQYHRLPLS
330 nM | 3/3 | 3/9 | KSSQSVDYESRNKNSVA | WAGTRKS | QQYHRLPLS
12 µM | 1/3 | 3/9 | KSSQSVLYESRNKNSVA | WASDFPS | QQYHRLPLS
no signal | 0/3 | 1/9 | KSSQSVLYEMRNKNSVA | WASTREK | QAYHRLPLS
180 nM | 3/3 | 3/9 | KDSQSVEYESRNKNSVA | WASTRES | QQYHRSPLS
42 nM | 3/3 | 7/9 | KSSQSVLNEMRNKNSVA | WASTRES | QQYHKLPLS
570 nM | 3/3 | 3/9 | KSSQSVLYESRNKNSVA | WASTVES | QQYHTLPLS
no signal | 0/3 | 0/9 | KSSQSVLYESRQKNSVA | WLSTRES | QQYHRLELS
3.6 nM | 3/3 | 3/9 | KSSQSVLYELDNKNSVA | WASTRES | QQYHRLPLP
34 nM | 3/3 | 0/9 | KSSQSAEYESRNKNSVA | WASTRES | QQYHELPLS
110 µM | 2/3 | 7/9 | KSSHSVLYESRNKNSVA | WASVRES | QQYHRLHLS
11 nM | 3/3 | 1/9 | KSSISKLYESHNKNSVA | WASTRES | QQYHRLPLS
370 µM | 1/3 | 0/9 | KKSQSVLYESRNKNSWA | PASTRES | QQYHRLPLS
2.0 µM | 3/3 | 7/9 | KSSQSVLYQSRNKNSVA | WASTRER | QQYHRLTLS
7.5 nM | 3/3 | 3/9 | KSSQSVLTESRYKNSVA | WASTRES | QQYKRLPLS
310 nM | 3/3 | 1/9 | KSSQSVLCISRNKNSVA | WASTRES | QQYHRLPLP

Picked from the list: the 11 lowest averages where every replicate gave a value.

CDR-L1,CDR-L2,CDR-L3,Kd (apparent),seen in,control signals
KSFQSTLYESRNKNSVA,DASTRES,QQYHRLPLS,2.0 nM,3/3,2/9
KSSQSVLYESRNKNSVA,WASTREY,QQYHRTWLS,2.1 nM,3/3,0/9
KSSQSVLYELDNKNSVA,WASTRES,QQYHRLPLP,3.6 nM,3/3,3/9
KSSYSPLYESRNKNSVA,WASTRES,QQYHRLPFS,5.1 nM,3/3,0/9
KSSQSVLTESRYKNSVA,WASTRES,QQYKRLPLS,7.5 nM,3/3,3/9
KSSISKLYESHNKNSVA,WASTRES,QQYHRLPLS,11 nM,3/3,1/9
KSSVSVLYESRTKNSVA,WASTRES,QQYHRLPLS,11 nM,3/3,0/9
KSSQSVFYESRNKNSVA,WASTRES,QQYHRLPNS,15 nM,3/3,0/9
KSAQSVLQASRNKNSVA,WASTRES,QQYHRLPLS,16 nM,3/3,0/9
KSPYSVLYESRNKNSVA,WASLRES,QQYHRLPLS,24 nM,3/3,4/9
KSSQSVLYESRSKNSVA,WASVRES,QQYRRLPLS,29 nM,3/3,1/9